Laboratory results taken from patent publication US4803224A, “Antiviral antibiotic complex” (Bristol-Myers Company, priority 1986, dated 1989).

Columns and labels:
Vero cell [1] = experiment: Cytotoxicity against host cells (plaque reduction assay); assay type: cell-based
Method: (§1) Antiviral activity of BU-2231 V was assessed using the herpes simplex virus type I (HSV-1)-Vero cell system by the plaque reduction assay and the dye-uptake assay (C. McLaren et al., Antiviral Research, 3, 223 (1983)). ε-poly-L-lysine (S. Shima and H. Sakai, Agr. Biol. Chem., 41, 1807 (1977)), a structurally related compound produced by Streptomyces No. 346 (kindly provided by Prof. H. Sakai of University of Osaka Prefecture) and two types of α-poly-L-lysine (MW 3,500 and 25,000) were comparatively tested as the reference compound. The results are shown in Table 2 together with their cytotoxicity against the host cells.

Vero cell [2] = experiment: Cytotoxicity against host cells (dye-uptake assay); assay type: cell-based
Method: as §1

Substance: α-poly-L-lysine [α-Poly-L-lysine (MW: 3,500)]
- Plaque reduction assay, Cytotoxicity vs Vero cell (TCID50) (Vero cell [1]): > 400 µg/mL
- Dye-uptake assay, Cytotoxicity vs Vero cell (TCID50) (Vero cell [2]): > 100 µg/mL

Substance: α-poly-L-lysine [α-Poly-L-lysine (MW: 25,000)]
- Plaque reduction assay, Cytotoxicity vs Vero cell (TCID50) (Vero cell [1]): 25 µg/mL
- Dye-uptake assay, Cytotoxicity vs Vero cell (TCID50) (Vero cell [2]): 20 µg/mL
